Measurements reported in paper PMC12022980, “Rational Design of PROTAC Linkers Featuring Ferrocene as a Molecular Hinge to Enable Dynamic Conformational Changes” (Journal of the American Chemical Society, 2025).

Protein sequences, listed by entry. Tags and fused reporters are not part of them.
UniProt P25440, whole entry: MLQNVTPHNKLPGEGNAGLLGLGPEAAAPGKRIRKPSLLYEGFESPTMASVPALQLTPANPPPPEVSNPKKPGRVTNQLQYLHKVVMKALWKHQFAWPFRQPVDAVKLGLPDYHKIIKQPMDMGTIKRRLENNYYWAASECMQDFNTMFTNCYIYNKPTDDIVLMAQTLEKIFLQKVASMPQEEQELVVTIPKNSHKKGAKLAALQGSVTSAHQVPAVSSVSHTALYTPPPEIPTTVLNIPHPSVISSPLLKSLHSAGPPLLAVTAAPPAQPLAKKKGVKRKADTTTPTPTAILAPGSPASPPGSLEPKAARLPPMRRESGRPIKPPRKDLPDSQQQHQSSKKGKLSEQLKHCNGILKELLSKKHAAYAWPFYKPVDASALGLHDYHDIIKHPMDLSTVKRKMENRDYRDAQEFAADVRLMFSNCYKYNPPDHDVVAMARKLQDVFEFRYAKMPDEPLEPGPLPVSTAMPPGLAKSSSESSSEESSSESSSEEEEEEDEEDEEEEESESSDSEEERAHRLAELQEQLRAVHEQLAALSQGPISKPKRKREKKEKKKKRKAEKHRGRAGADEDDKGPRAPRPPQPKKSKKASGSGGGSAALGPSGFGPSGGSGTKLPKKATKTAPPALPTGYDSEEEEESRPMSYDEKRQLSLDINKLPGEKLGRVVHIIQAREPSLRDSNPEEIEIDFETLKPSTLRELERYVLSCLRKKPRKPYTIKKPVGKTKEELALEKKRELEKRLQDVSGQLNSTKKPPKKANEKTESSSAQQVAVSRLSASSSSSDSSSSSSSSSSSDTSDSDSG
UniProt Q15059, whole entry: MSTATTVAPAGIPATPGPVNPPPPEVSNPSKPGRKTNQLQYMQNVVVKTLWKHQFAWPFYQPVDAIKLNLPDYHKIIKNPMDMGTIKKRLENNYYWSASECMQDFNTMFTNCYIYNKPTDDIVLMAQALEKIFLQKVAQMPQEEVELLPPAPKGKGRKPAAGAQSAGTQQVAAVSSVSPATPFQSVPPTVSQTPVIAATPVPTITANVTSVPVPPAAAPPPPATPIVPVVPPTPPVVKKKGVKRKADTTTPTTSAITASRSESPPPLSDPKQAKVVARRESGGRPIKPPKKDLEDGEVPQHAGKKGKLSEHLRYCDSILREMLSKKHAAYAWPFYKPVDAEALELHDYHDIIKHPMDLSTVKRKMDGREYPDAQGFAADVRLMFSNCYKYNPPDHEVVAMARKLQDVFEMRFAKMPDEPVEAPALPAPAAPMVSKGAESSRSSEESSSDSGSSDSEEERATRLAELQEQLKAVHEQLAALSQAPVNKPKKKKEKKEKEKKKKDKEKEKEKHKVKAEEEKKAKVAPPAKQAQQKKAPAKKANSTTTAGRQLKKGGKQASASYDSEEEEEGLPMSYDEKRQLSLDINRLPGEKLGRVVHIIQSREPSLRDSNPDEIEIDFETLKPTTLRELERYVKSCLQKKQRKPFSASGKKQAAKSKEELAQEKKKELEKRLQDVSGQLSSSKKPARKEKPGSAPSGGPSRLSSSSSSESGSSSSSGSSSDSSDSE

Assays:
HiBiT-tagged BRD2 = target: T1, HiBiT-tagged BRD2 (Homo sapiens, UniProt P25440); assay: Lytic HiBiT-BET degradation assay; format: cell-based; settings: HEK293, read-out: Dmax at 1 μM BRD2
T1 construct: host or cells: HEK293 cell line expressing HiBiT-tagged BRD2
Description: (§1) room temperature and protected from light. Thereafter, the membranes were washed with TBS-T three times for 10 min, and protein bands were acquired using a ChemiDoc MP imaging system (Bio-Rad). Band quantification was performed using Image Lab software and reported as ratio of each protein band relative to […]
(§2) Peak elution was monitored using ultraviolet absorbance at 280 nm.
(§3) Each treatment was conducted in biological duplicates with technical duplicates for each. […]
(§4) manufacturer's instructions, was added to each well. […]
(§5) to ensure complete cell lysis. Luminescence was recorded using the GloMax® Ultrasensitive Luminescence Protocol for 96-well plates.

HiBiT-tagged BRD4 = target: T2, HiBiT-tagged BRD4 (Homo sapiens, UniProt O60885); assay: Lytic HiBiT-BET degradation assay; format: cell-based; settings: HEK293, read-out: Dmax at 1 μM BRD4
T2 construct: host or cells: HEK293 cell line expressing HiBiT-tagged BRD4
Description: as §1, §2, §3, §4, §5

HiBiT-tagged BRD3 = target: T3, HiBiT-tagged BRD3 (Homo sapiens, UniProt Q15059); assay: Lytic HiBiT-BET degradation assay; format: cell-based; settings: HEK293, read-out: Dmax at 1 μM BRD3
T3 construct: host or cells: HEK293 cell line expressing HiBiT-tagged BRD3
Description: as §1, §2, §3, §4, §5

HiBiT-BRD3 = HiBiT-BRD3 (Homo sapiens, UniProt Q15059); settings: other cell line

Q: `Cc1ncsc1-c1ccc(CNC(=O)C2CC(O)CN2C(=O)C(NC(=O)COCCOCCOCCNC(=O)CC2N=C(c3ccc(Cl)cc3)c3c(sc(C)c3C)-n3c(C)nnc32)C(C)(C)C)cc1` (stereo not shown) [MZ1] was tested. Which Dmax at 1 µM (HiBiT-tagged BRD2) did it give?
A: 98%

Q: What about the Dmax at 1 µM (HiBiT-tagged BRD4) of the same compound?
A: 95%

Q: What about the Dmax at 1 µM (HiBiT-tagged BRD3) of the same compound?
A: 94%

Q: What about the “t1/2 BRD3” value (HiBiT-BRD3) of the same compound?
A: 52.8 min
